This passage reports IC50 results from ChEMBL document CHEMBL3864170, “Pyrazole Inhibitors of GluN2B NMDA Receptor Subunit” (ACS Med Chem Lett, 2016).

Sequences of proteins named here, by UniProt entry; tags and fusion partners are left off. A change or cut given only in a name is not applied to a line headed by its entry.
UniProt Q12809: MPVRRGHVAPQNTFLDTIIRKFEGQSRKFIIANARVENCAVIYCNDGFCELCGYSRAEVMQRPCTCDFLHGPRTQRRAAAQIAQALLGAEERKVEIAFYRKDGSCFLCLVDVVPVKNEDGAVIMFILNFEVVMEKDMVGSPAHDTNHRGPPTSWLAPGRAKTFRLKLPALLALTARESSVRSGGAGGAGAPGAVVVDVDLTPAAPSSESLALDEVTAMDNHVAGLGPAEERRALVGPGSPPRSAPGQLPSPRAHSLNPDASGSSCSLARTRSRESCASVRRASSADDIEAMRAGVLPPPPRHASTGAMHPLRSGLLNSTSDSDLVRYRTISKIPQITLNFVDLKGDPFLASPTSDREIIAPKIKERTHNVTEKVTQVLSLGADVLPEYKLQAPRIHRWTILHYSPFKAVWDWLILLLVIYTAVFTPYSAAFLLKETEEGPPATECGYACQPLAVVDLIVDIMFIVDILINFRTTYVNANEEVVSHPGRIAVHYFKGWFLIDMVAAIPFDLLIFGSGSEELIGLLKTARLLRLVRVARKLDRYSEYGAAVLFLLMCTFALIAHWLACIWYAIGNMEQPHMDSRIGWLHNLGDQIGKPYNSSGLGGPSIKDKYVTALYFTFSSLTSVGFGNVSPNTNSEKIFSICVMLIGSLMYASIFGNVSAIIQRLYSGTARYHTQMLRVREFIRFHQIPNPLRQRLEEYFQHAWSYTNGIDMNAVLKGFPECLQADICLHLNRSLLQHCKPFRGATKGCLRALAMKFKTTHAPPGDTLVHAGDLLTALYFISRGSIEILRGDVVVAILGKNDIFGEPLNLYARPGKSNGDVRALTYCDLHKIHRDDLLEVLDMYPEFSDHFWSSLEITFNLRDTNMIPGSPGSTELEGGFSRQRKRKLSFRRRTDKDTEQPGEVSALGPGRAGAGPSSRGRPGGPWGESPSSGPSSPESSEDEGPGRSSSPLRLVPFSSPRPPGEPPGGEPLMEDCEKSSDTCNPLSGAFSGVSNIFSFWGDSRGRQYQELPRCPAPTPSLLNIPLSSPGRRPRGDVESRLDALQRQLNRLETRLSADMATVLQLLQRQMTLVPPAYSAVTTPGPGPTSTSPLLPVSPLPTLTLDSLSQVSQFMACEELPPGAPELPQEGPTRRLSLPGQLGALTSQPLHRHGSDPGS
UniProt Q00960, whole entry: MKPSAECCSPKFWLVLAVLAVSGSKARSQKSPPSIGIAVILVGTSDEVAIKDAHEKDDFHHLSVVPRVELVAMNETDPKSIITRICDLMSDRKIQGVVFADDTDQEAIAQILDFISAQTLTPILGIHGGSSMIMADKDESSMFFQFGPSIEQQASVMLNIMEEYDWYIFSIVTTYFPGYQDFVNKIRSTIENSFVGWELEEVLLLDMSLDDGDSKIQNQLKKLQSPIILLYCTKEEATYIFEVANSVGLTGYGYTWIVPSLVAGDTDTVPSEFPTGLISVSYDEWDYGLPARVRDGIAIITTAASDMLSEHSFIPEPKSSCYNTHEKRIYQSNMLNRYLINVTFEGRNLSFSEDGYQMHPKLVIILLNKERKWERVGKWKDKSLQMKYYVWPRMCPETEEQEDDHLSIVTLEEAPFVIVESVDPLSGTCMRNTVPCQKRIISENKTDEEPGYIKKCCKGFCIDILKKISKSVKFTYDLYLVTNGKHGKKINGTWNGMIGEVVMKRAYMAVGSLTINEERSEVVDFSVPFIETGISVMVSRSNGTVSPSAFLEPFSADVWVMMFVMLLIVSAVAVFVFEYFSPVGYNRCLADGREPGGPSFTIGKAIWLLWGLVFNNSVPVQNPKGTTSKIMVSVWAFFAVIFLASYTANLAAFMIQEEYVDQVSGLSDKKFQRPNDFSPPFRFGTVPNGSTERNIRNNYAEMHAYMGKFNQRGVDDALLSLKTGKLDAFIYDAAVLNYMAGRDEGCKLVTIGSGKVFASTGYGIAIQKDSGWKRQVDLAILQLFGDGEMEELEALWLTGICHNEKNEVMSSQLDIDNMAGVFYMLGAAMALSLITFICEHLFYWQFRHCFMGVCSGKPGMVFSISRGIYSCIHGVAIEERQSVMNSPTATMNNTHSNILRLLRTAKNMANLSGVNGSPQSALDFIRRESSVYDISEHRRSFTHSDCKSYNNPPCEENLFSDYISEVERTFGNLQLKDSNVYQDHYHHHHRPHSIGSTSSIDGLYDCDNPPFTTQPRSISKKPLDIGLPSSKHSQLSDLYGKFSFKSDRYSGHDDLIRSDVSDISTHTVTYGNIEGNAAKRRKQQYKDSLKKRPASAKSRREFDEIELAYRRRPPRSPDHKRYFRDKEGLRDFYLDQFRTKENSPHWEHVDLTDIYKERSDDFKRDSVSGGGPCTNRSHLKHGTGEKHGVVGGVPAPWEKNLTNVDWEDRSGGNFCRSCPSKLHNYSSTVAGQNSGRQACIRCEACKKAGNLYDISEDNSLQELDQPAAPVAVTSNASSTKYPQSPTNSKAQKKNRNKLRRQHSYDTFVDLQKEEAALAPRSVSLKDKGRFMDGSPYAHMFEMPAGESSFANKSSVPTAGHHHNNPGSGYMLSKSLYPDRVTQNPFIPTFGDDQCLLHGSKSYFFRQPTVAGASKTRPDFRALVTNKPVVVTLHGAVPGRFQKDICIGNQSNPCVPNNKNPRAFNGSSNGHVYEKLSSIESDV

In general, IC50 refers to the midpoint of a concentration-inhibition curve.

One data set has as its target hERG (KCNH2) (Homo sapiens, UniProt Q12809). Briefly: Displacement of [3H]-dofetilide from human ERG expressed in HEK293 cell membranes after 90 mins by scintillation counting. The following applies: membranes of HEK293 cells that express human ERG, probe [3H]-dofetilide. In general terms: Loss of bound radioactivity is the signal in a displacement assay; it reports binding, not function.

The target of data set [1] is Glutamate receptor ionotropic, NMDA 2B (Rattus norvegicus, UniProt Q00960). The data set can be described thus: Antagonist activity at Wistar rat brain NR2B assessed as inhibition of glutamate/glycine-induced Ca2+ flux measured after 90 secs. On the technique in general: Calcium flux is commonly read through the fluorescence of an indicator in the cells.

SMILES strings stand for the structures.

At hERG (KCNH2), `FC(F)Oc1cc(-c2cnn(Cc3cc[nH]n3)c2)ccc1Cl` displayed an IC50 at 90 min of 9.56 µM. Further, the IC50 in data set [1] stood at 0.00521 µM.
